According to ChEMBL document CHEMBL1127536, “2-Azetidinones as inhibitors of cholesterol absorption” (J Med Chem, 1994):

Each compound was assayed against T1, Sterol O-acyltransferase 1 (Rattus norvegicus) (UniProt O70536) (assay: Inhibition of Acyl coenzyme A:cholesterol acyltransferase in microsomal ACAT assay at 10 uM).
T1 sequence (whole entry): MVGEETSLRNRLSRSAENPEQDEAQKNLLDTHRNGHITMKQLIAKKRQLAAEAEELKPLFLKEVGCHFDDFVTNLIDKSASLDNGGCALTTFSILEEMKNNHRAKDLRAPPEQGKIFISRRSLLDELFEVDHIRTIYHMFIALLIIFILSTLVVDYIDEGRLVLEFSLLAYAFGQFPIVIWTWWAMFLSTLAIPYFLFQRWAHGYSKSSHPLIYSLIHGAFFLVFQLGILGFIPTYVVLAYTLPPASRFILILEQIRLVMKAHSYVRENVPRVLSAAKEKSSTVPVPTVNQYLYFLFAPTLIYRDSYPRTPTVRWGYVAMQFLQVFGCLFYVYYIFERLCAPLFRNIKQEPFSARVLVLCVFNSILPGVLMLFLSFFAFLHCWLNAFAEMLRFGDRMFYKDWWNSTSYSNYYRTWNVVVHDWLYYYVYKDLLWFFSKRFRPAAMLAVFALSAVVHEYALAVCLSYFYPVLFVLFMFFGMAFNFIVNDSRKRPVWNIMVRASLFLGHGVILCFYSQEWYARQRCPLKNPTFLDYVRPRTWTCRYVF
How it was run: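 Rat hepatic microsomes (12.5 μg protein) with 90 µM fatty-acid-free BSA in 0.1 M potassium phosphate, 2 mM DTT, pH 7.4. Compound added from DMSO stocks and preincubated 15 min at 37 °C. Reaction started with [³H]-oleoyl-CoA (10 μM final) and run 15 min at 37 °C. Aliquot spotted on silica TLC, developed, and radioactivity in the cholesteryl oleate band counted by scintillation.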

Structure (SMILES) | inhibition
COc1ccc([C@@H]2[C@H](CCCc3ccccc3)C(=O)N2c2ccc(OC)cc2)cc1 | 51%
COc1ccc([C@@H]2[C@@H](CCCc3ccccc3)C(=O)N2c2ccc(OC)cc2)cc1 | 30%
COc1ccc([C@@H]2[C@@H](CCCc3ccccc3)C(=O)N2c2ccc(OC)cc2)cc1 (racemic) | 33%
